The record followed here is US20020160988A1 (priority 2001, published 2002).

The chains behind the UniProt entries cited, without tags or fusion partners. Where a name states a change or a piece, a line headed by the entry shows the natural chain unless it says otherwise. Residues count along the entry.
UniProt O62664, 25-600 limits assumed: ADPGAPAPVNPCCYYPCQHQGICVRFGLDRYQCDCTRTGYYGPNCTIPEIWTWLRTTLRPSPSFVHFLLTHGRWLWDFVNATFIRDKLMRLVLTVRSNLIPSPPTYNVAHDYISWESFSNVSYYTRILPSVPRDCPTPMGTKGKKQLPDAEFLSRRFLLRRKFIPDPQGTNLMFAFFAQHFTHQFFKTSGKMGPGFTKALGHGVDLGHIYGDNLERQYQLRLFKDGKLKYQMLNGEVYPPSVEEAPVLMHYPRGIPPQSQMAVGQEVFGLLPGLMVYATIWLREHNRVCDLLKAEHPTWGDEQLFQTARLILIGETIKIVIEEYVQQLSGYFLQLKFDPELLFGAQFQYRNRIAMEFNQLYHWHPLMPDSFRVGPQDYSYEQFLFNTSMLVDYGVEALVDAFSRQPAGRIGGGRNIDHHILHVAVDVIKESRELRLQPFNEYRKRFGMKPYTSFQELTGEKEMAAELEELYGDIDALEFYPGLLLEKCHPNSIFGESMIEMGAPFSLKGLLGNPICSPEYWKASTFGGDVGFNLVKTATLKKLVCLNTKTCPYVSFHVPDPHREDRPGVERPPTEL
UniProt P79208, 17-603 limits assumed: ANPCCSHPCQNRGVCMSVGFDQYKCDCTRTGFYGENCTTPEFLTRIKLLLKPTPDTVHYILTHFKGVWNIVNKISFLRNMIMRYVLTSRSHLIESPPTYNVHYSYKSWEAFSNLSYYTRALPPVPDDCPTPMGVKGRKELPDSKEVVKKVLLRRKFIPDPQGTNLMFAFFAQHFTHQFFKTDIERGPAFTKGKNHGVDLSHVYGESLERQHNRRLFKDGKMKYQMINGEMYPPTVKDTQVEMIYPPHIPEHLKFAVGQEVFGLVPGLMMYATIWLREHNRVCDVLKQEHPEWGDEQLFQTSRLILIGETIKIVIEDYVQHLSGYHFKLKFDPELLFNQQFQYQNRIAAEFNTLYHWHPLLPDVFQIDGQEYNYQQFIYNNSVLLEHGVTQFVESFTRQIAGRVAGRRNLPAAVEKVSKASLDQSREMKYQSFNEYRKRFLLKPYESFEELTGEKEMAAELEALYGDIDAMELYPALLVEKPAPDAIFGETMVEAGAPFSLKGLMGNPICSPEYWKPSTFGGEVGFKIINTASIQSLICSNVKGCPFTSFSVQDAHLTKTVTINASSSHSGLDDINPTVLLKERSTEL
UniProt P22303: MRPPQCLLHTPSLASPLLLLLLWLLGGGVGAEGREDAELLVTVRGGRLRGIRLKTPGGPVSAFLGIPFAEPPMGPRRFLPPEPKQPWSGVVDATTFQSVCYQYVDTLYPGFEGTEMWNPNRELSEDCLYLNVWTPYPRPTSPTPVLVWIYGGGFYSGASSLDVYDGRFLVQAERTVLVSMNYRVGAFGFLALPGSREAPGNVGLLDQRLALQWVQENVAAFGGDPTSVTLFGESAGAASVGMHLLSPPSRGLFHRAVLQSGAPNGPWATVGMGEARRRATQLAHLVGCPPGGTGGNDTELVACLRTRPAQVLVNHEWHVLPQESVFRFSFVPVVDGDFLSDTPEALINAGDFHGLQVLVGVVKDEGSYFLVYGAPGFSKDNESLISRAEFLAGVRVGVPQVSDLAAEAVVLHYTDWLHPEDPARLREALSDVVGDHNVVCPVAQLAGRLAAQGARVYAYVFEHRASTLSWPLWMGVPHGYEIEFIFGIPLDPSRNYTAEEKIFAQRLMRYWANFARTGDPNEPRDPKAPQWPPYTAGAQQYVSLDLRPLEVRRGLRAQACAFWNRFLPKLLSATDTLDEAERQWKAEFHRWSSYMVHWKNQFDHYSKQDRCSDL
UniProt P06276: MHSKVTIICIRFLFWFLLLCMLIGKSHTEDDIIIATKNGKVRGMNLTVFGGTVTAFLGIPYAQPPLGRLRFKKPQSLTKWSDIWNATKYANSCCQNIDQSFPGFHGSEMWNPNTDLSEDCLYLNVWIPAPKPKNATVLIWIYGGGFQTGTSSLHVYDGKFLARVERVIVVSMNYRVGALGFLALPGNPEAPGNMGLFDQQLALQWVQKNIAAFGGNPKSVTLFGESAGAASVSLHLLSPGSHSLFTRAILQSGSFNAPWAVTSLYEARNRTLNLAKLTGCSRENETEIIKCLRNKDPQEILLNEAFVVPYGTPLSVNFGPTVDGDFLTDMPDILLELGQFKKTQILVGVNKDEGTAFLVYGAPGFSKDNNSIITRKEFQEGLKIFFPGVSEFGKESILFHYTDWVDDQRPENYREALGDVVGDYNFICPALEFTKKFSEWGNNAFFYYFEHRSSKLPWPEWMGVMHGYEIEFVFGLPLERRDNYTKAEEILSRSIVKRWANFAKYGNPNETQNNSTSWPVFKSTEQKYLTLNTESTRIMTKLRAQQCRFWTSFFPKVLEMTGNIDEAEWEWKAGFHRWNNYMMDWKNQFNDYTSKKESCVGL
UniProt P23795: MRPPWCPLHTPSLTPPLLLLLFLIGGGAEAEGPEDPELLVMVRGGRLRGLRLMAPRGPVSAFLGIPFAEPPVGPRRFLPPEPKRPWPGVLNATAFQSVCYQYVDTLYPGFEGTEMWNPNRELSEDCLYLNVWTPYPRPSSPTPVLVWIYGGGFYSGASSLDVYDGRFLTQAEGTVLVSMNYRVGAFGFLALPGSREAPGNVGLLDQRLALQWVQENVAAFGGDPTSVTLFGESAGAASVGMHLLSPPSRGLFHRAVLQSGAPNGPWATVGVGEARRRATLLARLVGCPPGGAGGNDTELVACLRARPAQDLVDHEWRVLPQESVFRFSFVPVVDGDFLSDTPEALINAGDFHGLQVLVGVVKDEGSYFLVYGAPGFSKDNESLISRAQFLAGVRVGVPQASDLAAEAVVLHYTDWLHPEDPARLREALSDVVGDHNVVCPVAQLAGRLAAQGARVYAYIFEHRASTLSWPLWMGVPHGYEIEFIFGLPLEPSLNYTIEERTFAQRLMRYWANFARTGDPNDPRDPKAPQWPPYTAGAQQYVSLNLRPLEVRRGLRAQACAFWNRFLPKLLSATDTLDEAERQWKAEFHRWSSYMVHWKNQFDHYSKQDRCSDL

A short description of data set [1]: Lipophilicity: n-octanol/phosphate buffer partition. As to conditions: 50 mM phosphate buffer pH 7.4, 25° C.
The next data set deals with closed head injury. In words: Protection against closed head injury in mice. It is filed as in vivo.
In data set [2] the target is COX I (bovine seminal vesicles) (Bos taurus, UniProt O62664). Briefly: Inhibition of COX I in vitro (PGE2 immunoassay). As to conditions: 10^−6 M.
A further data set concerns the target COX II (sheep placenta) (Ovis aries, UniProt P79208). In words: Inhibition of COX II in vitro (PGE2 immunoassay). As to conditions: 10^−6 M.
Data set [3] has as its system mice. Briefly: In vivo toxicity (LD50) and Therapeutic Index in mice. As to conditions: intraperitoneal, 24 hours.
For data set [4], the target named is recombinant human acetylcholineesterase (rHuAChE) (Homo sapiens, UniProt P22303). Briefly: Inhibition of recombinant human AChE in vitro (Ellman). As to conditions: Hu-AChE.
Data set [5] concerns the target human plasma butyrylcholinesterase (HuBChE) (Homo sapiens, UniProt P06276). In words: Inhibition kinetics of human plasma BChE in vitro (Ellman). As to conditions: Hu-BuChE.
The target of data set [6] is fetal bovine serum-AChE (FBS-AChE) (Bos taurus, UniProt P23795). In words: Inhibition kinetics of fetal bovine serum AChE in vitro (Ellman).
Data set [7] deals with carrageenan-induced rat paw edema. In words: Carrageenan-induced rat paw edema. It is filed as in vivo. Conditions: 5 mg/kg i.p. 30 minutes before CAR, 2 hours after CAR; vehicle only 73%.
In data set [8] the test system is CAR-induced brain edema. Briefly: Carrageenan-induced brain edema in rats. It is filed as in vivo. Conditions: pretreatment 10 minutes prior to icv CAR (1%).
Data set [9] deals with mice. Briefly: Hypothermic effect in mice (rectal temperature). The data set is classed as in vivo. As to conditions: intraperitoneal 2.5 mg/kg.
The subject of another data set is hypobaric hypoxia. In words: Protection against hypobaric hypoxia in mice. It is filed as in vivo.
Data set [10] can be described thus: Stability in human plasma in vitro. Conditions: ESMS analysis.
The subject of data set [11] is CAR-induced brain edema. Briefly: Carrageenan-induced brain edema in mice. Conditions: intraperitoneal 10 mg/kg.
The next data set deals with NMDA receptors. In words: Displacement of [^3H]MK-801 from rat brain. Conditions: [^3H]MK-801, L = 4.8 nM, KD = 33 nM.
The subject of data set [12] is rat stomach mucosal tissue. In words: Rat stomach mucosal tissue after intraperitoneal administration. Conditions: intraperitoneal 10 mg/kg.
[13] abbreviates: 5 mg/kg i.p. 15 minutes after head injury, vehicle 83.64, sham 78.65.
The mark [14] stands for this setting: 7.5 mg/kg i.p. 15 minutes after head injury.
Where [15] appears, read: 10 mg/kg i.p. 15 minutes after head injury.

Where “and” joins values, the source holds several entries; their conditions need not be identical. Identical values can stand only once.

In the case of `CC(=O)Oc1ccccc1C(=O)OCCCCCCCC[n+]1cccc(OC(=O)N(C)C)c1`, the “Kp (partition coefficient n-octanol / phosphate buffer)” value in data set [1] stood at 0.47.

“N-(Naproxen octanoate)-3-(N,N-dimethylcarbamoyl) pyridinium bromide”: the “Water content (%)” value with closed head injury (setting [13]) was 81.38% and 81.38 ± 0.59%; with closed head injury (setting [14]), 82.09% and 82.09 ± 0.19%; in the data set on closed head injury (setting [15]) it was 81.38% and 81.38 ± 0.55%. The “DNSS (difference in neurological severity score, 1 h − 24 h)” value with closed head injury (5 mg/kg i.p., vehicle 1.0) was 2.0 and 2.00 ± 1.0; in the data set with closed head injury (7.5 mg/kg i.p.), 1.52 and 1.50 ± 0.62. For the same molecule, the “% Inhibition COX I” value in [2] is recorded as 55%. Moreover, the “% Inhibition COX II” value on COX II (sheep placenta) stood at 62%. Moreover, the “Kp (partition coefficient n-octanol / phosphate buffer)” value in data set [1] was 6.5. For the same molecule, the “LD50 (mice i.p.)” value with mice [3] came out at 37.2 mg/kg. Further, the “K′” value turned out to be 0.4 min⁻¹ in data set [4], 0.07 min⁻¹ in data set [5] and 0.9 min⁻¹ in [6]. For the same molecule, the “ki (bimolecular rate constant)” value in data set [4] is listed as 1.7 × 10^6 M^−1m^−1; in [5], 3.3 × 10^5 M^−1m^−1; in [6] it was 3.5 × 10^5 M^−1m^−1. The “ks × 10^3” value in [4] was found to be 40 minutes^−1; in data set [5] it was 1.1 minutes^−1; in data set [6], 95 minutes^−1. Besides, the Ki in data set [4] (25° C, dissociation constant) turned out to be 0.24 µM; in [5] (25° C, dissociation constant), 0.21 µM; in data set [6] (25° C, dissociation constant), 2.5 µM.

With `CC(C)Cc1ccc(C(C)C(=O)OCCCCCCCC[n+]2cccc(OC(=O)N(C)C)c2)cc1` (centres unmarked), the “edema level (% EDEMA) after treatment” value in data set [7] is “about 30%”. In the data set on CAR-induced brain edema [8], the “brain % water content” value came out at 82%. Further, in the data set with mice [9], the “persistence of hypothermic effect” value is reported as “at least 6 hours” and the “time of maximal hypothermic effect” value worked out at 30 min. The “Water content (%)” value with closed head injury (setting [13]) was 80.94% and 80.94 ± 0.84 %. In addition, in the data set on closed head injury (5 mg/kg i.p., vehicle 1.0), the “DNSS (difference in neurological severity score, 1 h − 24 h)” value was 1.25 and 1.25 ± 0.63. Also, the “Water content (%)” value in the data set on closed head injury (setting [14]) was 81.45% and 81.45 ± 0.35%. The “Water content (%)” value with closed head injury (setting [15]) is 80.91% and 80.91 ± 0.47 %. Further, the “survival of hypobaric hypoxia” value in the data set on hypobaric hypoxia (maximal hypoxia period 15 minutes) is given as “survived even the maximal hypoxia period of 15 minutes”. In addition, the “protection against hypoxia relative to vehicle control” value in the data set with hypobaric hypoxia (various doses i.p. 30 minutes before 200 mm Hg, vehicle control 100 seconds) is on record as 7.5-9 fold. For the same molecule, the “degradation products of the hydrolysis in plasma” value in data set [10] was “PO-OH and ibuprofen”. In the data set on CAR-induced brain edema [11], the “effect on brain water content” value is given as “significantly reduces the brain water content”. Also, in the data set with NMDA receptors, the 50% inhibitory concentration (IC50) amounted to 49 µM and the inhibitory constant (Ki) came to 43 µM. The “% Inhibition COX I” value in [2] is 41%. In addition, on COX II (sheep placenta), the “% Inhibition COX II” value is 62%. In addition, the “Kp (partition coefficient n-octanol / phosphate buffer)” value in [1] worked out at 6.14. The “effect on mucosal tissue of rat stomach” value in data set [12] is on record as “did not cause any detrimental effect on the mucosal tissue of rat stomach”.

For the molecule `COc1ccc2c(c1)c(CC(=O)OCCCCCCCC[n+]1cccc(OC(=O)N(C)C)c1)c(C)n2C(=O)c1ccc(Cl)cc1`, in data set [7], the “edema level (% EDEMA) after treatment” value is “about 30%”. For the same molecule, the “% Inhibition COX I” value in [2] is on record as 41%. Further, at COX II (sheep placenta), the “% Inhibition COX II” value was 75%. In addition, the “Kp (partition coefficient n-octanol / phosphate buffer)” value in [1] is on record as greater than 99.
